## Measured affinities in a library of Ab-14 light chain variants

The measurements come from Li et al. 2023 (doi:10.1038/s41467-023-39022-2) through the FLAb antibody collection.

All variants were tested on one target, the spike HR2 peptide PDVDLGDISGINAS (SARS-CoV-2).

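The starting antibody came from a phage panning campaign against this peptide. The variants were designed computationally from a first round of random CDR variants and then made and measured. Group labels follow the data file (Ctrl: baseline library sampled from a position-specific scoring matrix, with some repeated check sequences; Rand: our label for a block that the file lists under HC and that is probably the random mutants of the ten best first-round binders; En: ensemble of fine-tuned language models; GP: Gaussian process model; HC: hill climbing; Gen: genetic algorithm; Gibbs: Gibbs sampling; a sequence that several methods proposed may carry one label only). AlphaSeq pools MATa yeast showing the antibodies with MATalpha yeast showing the peptide. Pairs that bind mate more often; barcode pairs of the diploids are counted by sequencing. Scores were corrected for input abundance and mapped to Kd with protein pairs of known affinity run in the same pool. There are six technical replicates.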

The variants keep the heavy chain, the linker and the frameworks of Ab-14 (scFv order VH, a (GGGGS)3 linker, VL).
VH: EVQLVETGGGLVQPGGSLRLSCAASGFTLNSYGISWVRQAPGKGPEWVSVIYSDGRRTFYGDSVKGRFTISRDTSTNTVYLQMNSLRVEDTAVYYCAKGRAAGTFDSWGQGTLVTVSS
VL: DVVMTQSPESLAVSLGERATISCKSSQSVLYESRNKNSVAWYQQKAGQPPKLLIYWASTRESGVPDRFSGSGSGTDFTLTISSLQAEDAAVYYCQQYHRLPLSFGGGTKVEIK

The parent's light chain CDRs are KSSQSVLYESRNKNSVA, WASTRES, QQYHRLPLS; each variant's own CDRs replace them letter for letter. Values are log10 of the apparent Kd in nM; lower means stronger binding. Averages over replicates are reported, and they cover detected replicates only. Where no diploid with the target was found in any replicate, the entry reads "not detected": below detection, most likely a poor binder, though not proof of it. A sequence measured in both rounds can read differently, since the two assays cover different ranges. Background: pairings of all light chain designs with three empty control strains gave a value in 4% of cases (median 2.64, 5th percentile 1.59). Values in that range, when seen in few replicates, are hard to tell from nonspecific mating. The control count says in how many pairings with the empty strains this scFv gave a signal. The authors averaged sequences with at least three values out of six and counted those with two or fewer as poor binders.

| CDR-L1 | CDR-L2 | CDR-L3 | group | log10 Kd (nM), mean | seen in | empty controls |
|---|---|---|---|---|---|---|
| KISMLINQTFEESNNVA | EMVTREK | QQYNRLPLS | En_Gen | 1.80 | 6/6 | 4/18 |
| KMSQSVLYESRNKNSVA | AASTRES | QQYAGLPLS | Ctrl | 0.17 | 6/6 | 1/18 |
| KLPQSTMQESVSKNSVA | ELSTRGA | QQYHRLPLS | En_HC | 0.47 | 6/6 | 2/18 |
| MISQLINMGYFAINSVA | QAETRCN | QQYDRLPLE | En_Gen | not detected | 0/6 | 0/18 |
| KSGQGGLYESRNKNSVA | GASQRWS | QQYHRLPLS | GP_HC | 0.16 | 6/6 | 1/18 |
| KFKAMLNMWARDISNVA | HADERNV | QQYSRLPLG | En_Gibbs | 1.44 | 6/6 | 0/18 |
| KYSQSVLYESRRKNSVA | WASIRES | QLYHRLPLS | Ctrl | not detected | 0/6 | 0/18 |
| NMRGGEGEIAQHGYNVA | GVDLRAA | QQYARLPLH | En_Gibbs | 0.87 | 6/6 | 0/18 |
| KSSQSVYYESRNRNSVA | WASARES | QQYHQLPLS | Ctrl | not detected | 0/6 | 0/18 |
| KLEWSQLYESRNKNSVA | NASTRES | QQYHRLPLS | GP_Gen | 0.00 | 6/6 | 2/18 |
| KQQGGQDYSSRMDNSVA | DASTRES | QQYHRLPLS | GP_Gibbs | not detected | 0/6 | 0/18 |
| KLSQSVLYESRNKNSVA | NASLRES | QQYHRLPLS | GP_Gen | -0.25 | 6/6 | 2/18 |
| KMMNSLGAFKQSEDNVA | EVEQKVA | QQYDHLPLT | En_Gibbs | 1.37 | 6/6 | 0/18 |
| KSSQSVLYESRNKNSVA | WASTRES | YQYHRLPLS | Ctrl | not detected | 0/6 | 0/18 |
| HFSQVTMYGSWNKNSVA | QTSTREE | QQYDRLPLS | En_HC | 2.26 | 1/6 | 0/18 |
| KVSQSMLYESRNWNSVA | NASTRES | QQYHRLPLS | GP_Gen | 0.24 | 6/6 | 0/18 |
| KVSEFMKGLMMRTDSIA | DNETRNN | QQYDRLPLS | En_Gen | 2.19 | 4/6 | 2/18 |
| KVSESVLYESRNKNSVA | NASTRES | QQYHRLPLS | GP_Gen | -0.14 | 6/6 | 2/18 |
| KISQSWLYESRNKNSVA | GASFRES | QQYHRLPLS | GP_HC | 0.04 | 6/6 | 0/18 |
| KSSQSVLPEPRNKNSVA | DASTRES | QQYHRLPLS | GP_HC | -0.28 | 6/6 | 0/18 |
| KTSQSWNYESRNKNSVA | WASTRES | QQYHRLPLS | Ctrl | 1.22 | 6/6 | 1/18 |
| KVSQSVLYESGDKNSVA | NASSRES | QQYHRLPLS | GP_HC | 1.05 | 6/6 | 0/18 |
| KSDQSVLFESRNKPSVA | EASVRES | QQYHRLPLS | Ctrl | 0.79 | 6/6 | 0/18 |
| KLQQSMEYESRNKNSVA | NASTRES | QQYHRLPLS | GP_Gen | -0.06 | 6/6 | 1/18 |
| KINLAVWNSGHNMNNIA | GESELSR | QQYVRLPLQ | En_Gibbs | 0.38 | 6/6 | 2/18 |
| KFSQQVLYESRQKNSVA | NASQRLE | QQYHRLPLS | GP_Gibbs | 0.07 | 6/6 | 2/18 |
| KFSQQNLYEDRMKNPVA | NASQREQ | QQYHRLPLS | GP_Gibbs | 0.39 | 6/6 | 0/18 |
| KLMGSMEYESRNKNSVA | EASTRES | QQYHRLPLS | GP_Gibbs | 0.47 | 6/6 | 0/18 |
| NLQLQPRDGAQAQNSIA | DVSEADM | QQYARLPLT | En_Gibbs | 0.62 | 6/6 | 0/18 |

Second part, the sequence after the result:

| log10 Kd (nM), mean | seen in | empty controls | CDR-L1 | CDR-L2 | CDR-L3 | group |
|---|---|---|---|---|---|---|
| -0.05 | 6/6 | 1/18 | KLSQSQLYESRMKNSVA | NASTRMS | QQYHRLPLS | GP_Gen |
| 0.27 | 6/6 | 2/18 | KLVQSWLYESRNKNSVA | GASTRES | QQYHRLPLI | GP_HC |
| -0.26 | 6/6 | 0/18 | TIADVMGHMSKNRNNVA | DMDTRGQ | QQYNRLPLS | En_Gen |
| 1.12 | 6/6 | 0/18 | KLSQSVLYESRWKNSVA | NASQRES | QQYHRLPLS | GP_Gen |
| -0.36 | 6/6 | 0/18 | KLSQSVLYESRNKNSVA | NASTRES | QQYHRLPLV | GP_Gen |
| 0.14 | 6/6 | 0/18 | KITATMRFEQKASNNIA | EVSTRSK | QQYVRLPLA | En_Gen |
| 0.02 | 6/6 | 1/18 | KFSQSVLYESRNKNSVA | NASQRCS | QQYHRLPLS | GP_Gen |
| 0.45 | 6/6 | 0/18 | KLDSHEQHGTAQNSAMA | NATVSTQ | QQYSRLPLS | En_Gibbs |
| 0.82 | 6/6 | 0/18 | KFQQSQLYESRQKNSVA | NASKRCS | QQYHRLPLS | GP_Gibbs |
| 2.46 | 6/6 | 1/18 | IFSQSVLMGNMTRNSVA | QANERFN | QQYDRLPLI | En_HC |
| not detected | 0/6 | 0/18 | KSLQSVLYESRNKCSGA | HASRRED | QQYHRLPLS | Rand |
| 0.26 | 6/6 | 0/18 | KFSQSVAYESRTKNSVA | NASTREA | QQYHRLPLS | GP_HC |
| 0.28 | 6/6 | 0/18 | IAVQSELYESRNKNSVA | GASTRES | QQYHRLPLI | GP_HC |
| -0.08 | 6/6 | 2/18 | KLSPSEQYESRQKNSVA | NASLRES | QQYHRLPLS | GP_Gibbs |
| 1.81 | 4/6 | 0/18 | KSDQSYLYESREKNSVA | WASTRES | QQYHRLPLS | Ctrl |
| 1.31 | 1/6 | 0/18 | MISQLMNMGSFAINSVA | QASIRNS | QQYDRLPLI | En_Gen |
| 0.09 | 6/6 | 1/18 | IIDQIMYHGNKHANSIA | QASERLN | QQYHHLPLT | En_Gen |
| -0.17 | 6/6 | 3/18 | KSSCSGLYESRMKNSVA | EASTRES | QQYHRLPLS | GP_HC |
| 0.90 | 6/6 | 2/18 | RMSQIIQENVRQYNAVA | NGETRTA | QHYSRLPLE | En_Gibbs |
| not detected | 0/6 | 0/18 | KSSDSVEYESRNKNSVA | WASTRES | QQTHRLPLS | Ctrl |
| -0.16 | 6/6 | 1/18 | KVSIMDDGGDRNKNSVA | HASLRES | QQYHRLPLS | GP_Gibbs |
| -0.33 | 6/6 | 0/18 | KSSISVLGESRNKNSVA | DASTRES | QQYHRLPLS | GP_HC |
| 1.44 | 6/6 | 0/18 | KIDGQRSYDAGRERAIA | DVTIRFR | QQYARLPLL | En_Gibbs |
| 1.24 | 6/6 | 0/18 | MISQSFMIGMKAKNSVA | QTNTREE | QQYDRLPLI | En_HC |
| -0.02 | 6/6 | 2/18 | KLSQSQLYESRNKNSVA | NASTREM | QQYHRLPLS | GP_Gen |
| 0.02 | 6/6 | 0/18 | KLQWYPLEIRDTGSAVA | EAATRYN | QQYMRLPLM | En_Gibbs |
| 1.49 | 6/6 | 1/18 | MISQMFLGESRNRNSVA | QASTRES | QSYDRLPLS | En_HC |
| -0.15 | 6/6 | 1/18 | HLSQSVLYESRNKNSVA | NASTREV | QQYHRLPLS | GP_Gen |
| 2.91 | 1/6 | 1/18 | MISDMGIHDSRIQNSVA | NNSTREA | QQYDRLPLS | En_HC |
| not detected | 0/6 | 0/18 | TISQVMNTLTRNTNNVA | DLQNRED | QQYFRLPLS | En_Gen |

Extract of 5 entries:

{"CDR-L1": "KLEWSQLYESRNKNSVA", "CDR-L2": "NASTRES", "CDR-L3": "QQYHRLPLS", "group": "GP_Gen", "log10 Kd (nM), mean": "0.00", "seen in": "6/6", "empty controls": "2/18"}
{"CDR-L1": "KSSCSGLYESRMKNSVA", "CDR-L2": "EASTRES", "CDR-L3": "QQYHRLPLS", "group": "GP_HC", "log10 Kd (nM), mean": "-0.17", "seen in": "6/6", "empty controls": "3/18"}
{"CDR-L1": "RMSQIIQENVRQYNAVA", "CDR-L2": "NGETRTA", "CDR-L3": "QHYSRLPLE", "group": "En_Gibbs", "log10 Kd (nM), mean": "0.90", "seen in": "6/6", "empty controls": "2/18"}
{"CDR-L1": "KVSEFMKGLMMRTDSIA", "CDR-L2": "DNETRNN", "CDR-L3": "QQYDRLPLS", "group": "En_Gen", "log10 Kd (nM), mean": "2.19", "seen in": "4/6", "empty controls": "2/18"}
{"CDR-L1": "MISQLMNMGSFAINSVA", "CDR-L2": "QASIRNS", "CDR-L3": "QQYDRLPLI", "group": "En_Gen", "log10 Kd (nM), mean": "1.31", "seen in": "1/6", "empty controls": "0/18"}